Values quoted from earlier work, collected in publication PMC3758386 (Psychopharmacology, 2013).

Molecular target: NET
Conditions: read-out: Ki NET; ref Woolverton et al., Psychopharmacology (2001); cited from earlier work

For `CN1C2CCC1CC(OC(c1ccc(Cl)cc1)c1ccc(Cl)cc1)C2` (stereo not drawn) [4,4-diCl-BZT, 4′-chloro-4″-chloro-3α-(diphenylmethoxy)tropane], the Ki is listed as 2980 ± 182 nM.
